Target: Voltage-gated inwardly rectifying potassium channel KCNH2 (Homo sapiens, UniProt Q12809)

By UniProt entry, the sequences of proteins in these tests, tags left out. Where a name states a change or a piece, a line headed by the entry shows the natural chain unless it says otherwise.
UniProt Q12809: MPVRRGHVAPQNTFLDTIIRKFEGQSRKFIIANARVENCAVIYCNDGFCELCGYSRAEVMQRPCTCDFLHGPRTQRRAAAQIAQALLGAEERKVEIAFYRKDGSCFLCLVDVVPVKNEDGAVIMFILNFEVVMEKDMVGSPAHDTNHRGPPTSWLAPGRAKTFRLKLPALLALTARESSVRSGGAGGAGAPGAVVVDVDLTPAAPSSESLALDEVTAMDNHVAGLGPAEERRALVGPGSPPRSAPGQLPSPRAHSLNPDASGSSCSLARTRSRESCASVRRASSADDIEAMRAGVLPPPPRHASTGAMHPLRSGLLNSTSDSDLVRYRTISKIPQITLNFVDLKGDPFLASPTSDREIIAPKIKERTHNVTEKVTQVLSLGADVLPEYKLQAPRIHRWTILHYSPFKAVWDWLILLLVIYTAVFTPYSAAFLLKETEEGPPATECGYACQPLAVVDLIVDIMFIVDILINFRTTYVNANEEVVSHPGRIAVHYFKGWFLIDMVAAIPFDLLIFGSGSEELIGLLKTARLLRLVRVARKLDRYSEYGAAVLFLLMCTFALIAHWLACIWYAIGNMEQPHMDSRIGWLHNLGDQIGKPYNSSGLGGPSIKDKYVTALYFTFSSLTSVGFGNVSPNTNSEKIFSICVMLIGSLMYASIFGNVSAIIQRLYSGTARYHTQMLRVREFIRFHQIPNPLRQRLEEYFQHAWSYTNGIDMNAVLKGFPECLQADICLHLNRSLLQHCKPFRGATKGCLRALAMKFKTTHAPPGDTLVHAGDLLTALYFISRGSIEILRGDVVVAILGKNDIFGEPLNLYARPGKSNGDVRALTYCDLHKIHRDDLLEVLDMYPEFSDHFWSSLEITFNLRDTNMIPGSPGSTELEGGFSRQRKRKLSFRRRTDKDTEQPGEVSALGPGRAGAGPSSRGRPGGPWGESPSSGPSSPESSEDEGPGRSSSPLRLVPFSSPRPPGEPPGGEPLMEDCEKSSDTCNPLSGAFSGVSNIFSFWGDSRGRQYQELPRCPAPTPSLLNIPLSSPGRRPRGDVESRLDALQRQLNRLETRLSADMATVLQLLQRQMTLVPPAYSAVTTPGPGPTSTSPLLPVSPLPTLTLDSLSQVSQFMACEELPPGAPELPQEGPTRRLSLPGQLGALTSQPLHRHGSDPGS

Question: How did the IC50 turn out when CC(C)COCC(CN(Cc1ccccc1)c1ccccc1)N1CCCC1 (stereo unspecified) [BEPRIDIL] was run?
Answer: 1400 nM

Source: ChEMBL document CHEMBL4602729, “O-Alkyl Hydroxamates Display Potent and Selective Antileishmanial Activity” (J Med Chem, 2020)
